# Measured affinities in a library of Ab-91 heavy chain variants

Source: Engelhart et al. 2022 (doi:10.1038/s41597-022-01779-4), MIT Lincoln Laboratory and A-Alpha Bio; data file from the FLAb repository.

All variants were tested on one target, the spike HR2 peptide PDVDLGDISGINAS (SARS-CoV-2).

The variants keep the light chain, the linker and the frameworks of Ab-91 (scFv order VL, a (GGGGS)3 linker, VH).
VL: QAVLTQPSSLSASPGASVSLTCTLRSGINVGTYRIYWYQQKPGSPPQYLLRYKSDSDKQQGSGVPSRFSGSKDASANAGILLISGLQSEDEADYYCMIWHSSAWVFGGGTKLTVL
VH: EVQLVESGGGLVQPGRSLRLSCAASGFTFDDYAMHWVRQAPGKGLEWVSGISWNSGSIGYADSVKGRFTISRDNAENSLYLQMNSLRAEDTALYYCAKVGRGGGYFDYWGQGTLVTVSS

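The starting antibody came from a phage panning campaign against this peptide. In library AAYL51, one, two or three CDR residues were substituted; doubles and triples were drawn at random. The assay is AlphaSeq: two haploid yeast populations carry antibody and antigen on their surface. Mating (16 h, 30 °C) was followed by selection of diploids and sequencing of their barcodes. Scores were corrected for input abundance and mapped to Kd with protein pairs of known affinity run in the same pool. The assay was run in three technical replicates.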

The parent's heavy chain CDRs are GFTFDDYAMH, GISWNSGSIGYADSVK, VGRGGGYFDY; each variant's own CDRs replace them letter for letter. This list gathers variants with a substitution at Y105 (VH, numbered from residue 1). Values are apparent Kd, the geometric mean of the replicates that gave a signal; lower means stronger binding. Where no diploid with the target was found in any replicate, the entry reads "nd": below detection, most likely a poor binder, though not proof of it. Background: pairings of library AAYL51 with three empty control strains gave a value in 21% of cases (median 34 µM, 5th percentile 1.8 µM). Values in that range, when seen in few replicates, are hard to tell from nonspecific mating. Also given: how often the same scFv was detected with the empty control strains.

Variant GFTFDDYAMH / GISWNSHSIGYADSVK / VGRGGGQFDY gave 3.1 mM (2 of 3 replicates; controls 3 of 9). For GFTFDDYAMH / GISWVSGSMGYADSVK / VGRGGGAFDY, the assay gave 850 µM (1 of 3 replicates; controls 4 of 9). Variant GFTFDDYALH / GISWNSGSIGYADSVK / VGRGGGPFDF gave 3.7 µM (1 of 3 replicates; controls 1 of 9). For GFTFDDYDMH / GIHWNSGSIGYADSVK / VGRGGGSFDY, the assay gave 29 µM (1 of 3 replicates; controls 5 of 9). Variant GFTFDDYAMH / GISHNSGSIGYEDSVK / VGRGGGSFDY showed 25 nM (3 of 3 replicates; controls 4 of 9). With GFTFDDYAMH / GISWNSGSIGYADQVK / VGRGGGVIDY the result was 18 µM (1 of 3 replicates; controls 1 of 9). Variant GFTFDDYAMH / GMSWNSGSIGYADSVK / VGRGGGGFDY showed 79 µM (3 of 3 replicates; controls 5 of 9). Variant GCTFDDYAMH / GISWNSGSIGYADSVR / VGRGGGIFDY gave nd (0 of 3 replicates; controls 0 of 9). Variant GFTFDDYAMH / GISWNSGSIGYADSVR / VGRGGGPEDY gave 340 µM (1 of 3 replicates; controls 1 of 9).

Variant GFTFDDYAMH / GISWNSGSIGYADSSK / VGRGGGMFDY gave 36 µM (1 of 3 replicates; controls 2 of 9). For GFTFDDYAMH / GGSWNSGSIGYADSVK / VGREGGDFDY, the assay gave 820 µM (1 of 3 replicates; controls 5 of 9). For GFTFDDYAMH / GISWNSGSIGYAPSVK / VGRGGPKFDY, the assay gave 380 nM (3 of 3 replicates; controls 1 of 9). Variant GFTFDHYAMH / GISWNSGSIGYADSVM / VGRGGGFFDY gave 2.8 nM (3 of 3 replicates; controls 5 of 9). With GFTDDDYAMH / GISWNSGSIGYADSVK / VGRGGGSFDY the result was 200 nM (3 of 3 replicates; controls 1 of 9). For GFTFDDYAMH / GISWNSGSIGYADSVK / VGRPGGFFGY, the assay gave nd (0 of 3 replicates; controls 1 of 9). Variant CFTFDDYAMH / GISWNSHSIGYADSVK / VGRGGGHFDY showed 18 µM (1 of 3 replicates; controls 5 of 9). Variant GFTWDDYAMH / GISWNSGSIGYADSVG / VGRGGGMFDY showed nd (0 of 3 replicates; controls 0 of 9). For GFTFDDSAMH / GISWNSGTIGYADSVK / VGRGGGTFDY, the assay gave nd (0 of 3 replicates; controls 1 of 9).

Variant GFTFDDYAME / GISWNSGSEGYADSVK / VGRGGGVFDY showed nd (0 of 3 replicates; controls 0 of 9). For GFTFDDFAMH / GISSNSGSIGYADSVK / VGRGGGTFDY, the assay gave nd (0 of 3 replicates; controls 1 of 9). For GFTFDDYAMH / GISWNSGSIGYADSVK / VGGGGGCFHY, the assay gave nd (0 of 3 replicates; controls 0 of 9). With GFTFDDYAMH / GGSWCSGSIGYADSVK / VGRGGGEFDY the result was 98 µM (3 of 3 replicates; controls 6 of 9). Variant GFTFDDYAMH / GISWNSGSWGYADSYK / VGRGGGWFDY showed 1.4 mM (1 of 3 replicates; controls 6 of 9). Variant GFQFDDYAMH / GISWNSGSIGYADSVK / VGRGRGSFDY showed 59 nM (3 of 3 replicates; controls 0 of 9). Variant GFMFDDSAMH / GISWNSGSIGYADSVK / VGRGGGIFDY showed 110 µM (2 of 3 replicates; controls 4 of 9). Variant GFTFIDYAMH / GISWNSGGIGYADSVK / VGRGGGEFDY gave nd (0 of 3 replicates; controls 0 of 9). Variant GFTHDDYAMH / GISWNSGSIGYADSVK / FGRGGGFFDY gave 280 µM (1 of 3 replicates; controls 1 of 9).

For DFTFDDYAMH / GISWNSGSIGYADVVK / VGRGGGPFDY, the assay gave 710 µM (3 of 3 replicates; controls 4 of 9). Variant GYTFDDYAMH / GISWNSGSIGYADSVK / VGRGGGPFYY showed 22 nM (3 of 3 replicates; controls 6 of 9). For GFTFDDYAMH / GISWNSGSIGYADSVK / VQRGGGSYDY, the assay gave nd (0 of 3 replicates; controls 0 of 9). Variant GFTFDDYAMH / GISWNSGSIGYAMSVK / VGRGGGVNDY gave 180 µM (2 of 3 replicates; controls 5 of 9). Variant GFTFDDYIMH / GISWNSGSISYADSVK / VGRGGGRFDY gave 10 µM (2 of 3 replicates; controls 1 of 9). Variant GFTFDDYAMH / GISWNSGSIGYADYVK / VGRGCGHFDY gave 16 nM (3 of 3 replicates; controls 0 of 9). For GFTFDDYAMH / GISWNSGSIGYADIVK / VGKGGGWFDY, the assay gave 25 µM (3 of 3 replicates; controls 0 of 9). Variant GFTFDDYAMH / GISWNSGSIGYADSVK / VGRGNGWFDW gave 200 µM (3 of 3 replicates; controls 5 of 9). For GFTFDDYAMH / MISWNSKSIGYADSVK / VGRGGGHFDY, the assay gave nd (0 of 3 replicates; controls 0 of 9).

Variant GFHFDDYAMH / GISWNSGSIGYADSVK / VGRGGGLFDY gave 3.0 nM (3 of 3 replicates; controls 0 of 9). For GFTFDDYAMH / GISWNSGSHGYADSVK / VGRGGVKFDY, the assay gave 6.7 µM (1 of 3 replicates; controls 1 of 9). For GFTFDDYAMH / GISWNSHSIGYADGVK / VGRGGGSFDY, the assay gave 840 nM (3 of 3 replicates; controls 2 of 9). Variant GFTFDCYAMH / GISWNSGSEGYADSVK / VGRGGGKFDY gave nd (0 of 3 replicates; controls 1 of 9). Variant IFTFDDYAMH / GISWNSGSIGYADSVK / VGHGGGWFDY gave nd (0 of 3 replicates; controls 0 of 9). Variant GFTFDDYAMH / GIDWNVGSIGYADSVK / VGRGGGVFDY gave 8.4 µM (3 of 3 replicates; controls 3 of 9). Variant GFTFDDYAMH / GISWNSGSIGYADSVG / VGRGGGKFDY showed 8.3 µM (3 of 3 replicates; controls 4 of 9). Variant GFTFDDYAMN / GISWNSDSIGYADSVK / VGRGGGNFDY showed 64 µM (1 of 3 replicates; controls 5 of 9). For GFTFDDYAMH / GISWNRGSIGYADSVK / VGRGGGKFDE, the assay gave 30 µM (2 of 3 replicates; controls 2 of 9).

For GFTFDDYAMH / GISWNSGMIGYADSVK / MGRGGGHFDY, the assay gave 4.7 µM (1 of 3 replicates; controls 0 of 9). With GYTFDDYAMH / GISWNSGSIGYADLVK / VGRGGGVFDY the result was 620 nM (2 of 3 replicates; controls 0 of 9).

Extract of 6 entries:

| CDR-H1 | CDR-H2 | CDR-H3 | Kd | replicates with signal | signal with controls |
|---|---|---|---|---|---|
| GFTFDDYAMH | GISWNSGSIGYADYVK | VGRGCGHFDY | 16 nM | 3/3 | 0/9 |
| GFTFDDYAMH | GISWNSHSIGYADSVK | VGRGGGQFDY | 3.1 mM | 2/3 | 3/9 |
| GFMFDDSAMH | GISWNSGSIGYADSVK | VGRGGGIFDY | 110 µM | 2/3 | 4/9 |
| GFTDDDYAMH | GISWNSGSIGYADSVK | VGRGGGSFDY | 200 nM | 3/3 | 1/9 |
| GFTFDDYAMH | GGSWCSGSIGYADSVK | VGRGGGEFDY | 98 µM | 3/3 | 6/9 |
| GFTFDDYIMH | GISWNSGSISYADSVK | VGRGGGRFDY | 10 µM | 2/3 | 1/9 |